This note sets out measurements from US20080234306A1, “N-Oxides of 4,5-Epoxy-Morphinanium Analogs” (Progenics Pharmaceuticals, Inc., priority 2006, published 2008).

By UniProt entry, the sequences of proteins in these tests, tags left out. Residues count along the entry.
UniProt A0ACM8Q262, 1-400: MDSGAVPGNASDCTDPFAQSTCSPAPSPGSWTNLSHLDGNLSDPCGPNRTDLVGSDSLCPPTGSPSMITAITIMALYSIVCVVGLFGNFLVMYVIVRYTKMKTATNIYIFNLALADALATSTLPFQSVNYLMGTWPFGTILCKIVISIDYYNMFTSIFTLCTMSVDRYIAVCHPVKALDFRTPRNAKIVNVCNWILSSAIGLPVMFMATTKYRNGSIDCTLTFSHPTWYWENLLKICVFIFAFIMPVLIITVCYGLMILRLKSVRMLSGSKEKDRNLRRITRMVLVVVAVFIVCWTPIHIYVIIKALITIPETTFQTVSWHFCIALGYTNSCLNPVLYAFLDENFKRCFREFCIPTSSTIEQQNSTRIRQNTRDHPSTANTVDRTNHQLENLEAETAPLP

In this experiment the target is μ-opioid receptor (Cavia porcellus, UniProt A0ACM8Q262). Briefly: Evaluation of antagonist activity at the μ-opioid receptor, guinea pig ileum test (tissue model, responses to DAMGO). The conditions noted are these: read-out: Responses to DAMGO (1.0E−07 M) in the presence of increasing concentrations of the compounds (% control response). The method, then: Evaluation for Agonist and Antagonist Activities at the […] Receptors in the Guinea Pig Ileum
Agonist/antagonist activity at the μ-opioid receptor was determined using the well known guinea pig ileum test. Briefly, an a section of ileum was placed in a stabilized solution in a tensed state. Transducers were used to measure changes in tension upon electrical stimulation to the tissue before and after challenge with a potential agonist/antagonist Using a control, constriction inhibition, and constriction inhibition cancellation, may be measured.

Structures are written as SMILES.

Consider `C=CCN1CC[C@]23c4c5ccc(O)c4O[C@H]2C(=O)CC[C@@]3(O)[C@H]1C5` [naloxone, reference compound], for which, where the note is “compound 1.0E^−07 M”, the remaining activity at 0.1 µM is -6%. The remaining activity at 0.02 µM (compound 2.0E^−08 M) turned out to be 51%. For the setting “compound 5.0E^−09 M”, the remaining activity at 0.005 µM is 85%.
